Here are results for three substances from PMC7619101.

Assay [1] deals with GluA4, edited at the R743G site (rat).

As for GluA4 R230A/H233A (receptor), in the assay with GluA4 R230A/H233A (rat), the recovery from desensitization, tau (HEK293T cells with TARP-γ2, 10 mM glutamate two-pulse protocol) is 24.3 ms. Take “GluA4, edited at the R743G site (receptor)”: the recovery from desensitization, tau (HEK293T cells with TARP-γ2, 10 mM glutamate two-pulse protocol) in assay [1] was 17.1 ms.

In the case of GluA4 H233A (receptor), the recovery from desensitization, fold slowing against GluA4 wild type with GluA4 H233A (rat) turned out to be 1.4 fold.
